# Values of other authors, collected in US9724544B2, “Vitamin D promoting sunscreen” (priority 2009, dated 2017).
# Settings: approximately 295 to 315 nm; cited from earlier work
substance,measurement,value
"2,2′-dihydroxy-4,4′-dimethoxybenzophenone-5,5′-disodium sulfonate",absorption in the vitamin D producing range,relative lack of absorption
